{"sequences": {"note": "Sequences of proteins named here, by UniProt entry; tags and fusion partners are left off. Residues count along the entry.", "UniProt P07949, 29-1114 V804M": "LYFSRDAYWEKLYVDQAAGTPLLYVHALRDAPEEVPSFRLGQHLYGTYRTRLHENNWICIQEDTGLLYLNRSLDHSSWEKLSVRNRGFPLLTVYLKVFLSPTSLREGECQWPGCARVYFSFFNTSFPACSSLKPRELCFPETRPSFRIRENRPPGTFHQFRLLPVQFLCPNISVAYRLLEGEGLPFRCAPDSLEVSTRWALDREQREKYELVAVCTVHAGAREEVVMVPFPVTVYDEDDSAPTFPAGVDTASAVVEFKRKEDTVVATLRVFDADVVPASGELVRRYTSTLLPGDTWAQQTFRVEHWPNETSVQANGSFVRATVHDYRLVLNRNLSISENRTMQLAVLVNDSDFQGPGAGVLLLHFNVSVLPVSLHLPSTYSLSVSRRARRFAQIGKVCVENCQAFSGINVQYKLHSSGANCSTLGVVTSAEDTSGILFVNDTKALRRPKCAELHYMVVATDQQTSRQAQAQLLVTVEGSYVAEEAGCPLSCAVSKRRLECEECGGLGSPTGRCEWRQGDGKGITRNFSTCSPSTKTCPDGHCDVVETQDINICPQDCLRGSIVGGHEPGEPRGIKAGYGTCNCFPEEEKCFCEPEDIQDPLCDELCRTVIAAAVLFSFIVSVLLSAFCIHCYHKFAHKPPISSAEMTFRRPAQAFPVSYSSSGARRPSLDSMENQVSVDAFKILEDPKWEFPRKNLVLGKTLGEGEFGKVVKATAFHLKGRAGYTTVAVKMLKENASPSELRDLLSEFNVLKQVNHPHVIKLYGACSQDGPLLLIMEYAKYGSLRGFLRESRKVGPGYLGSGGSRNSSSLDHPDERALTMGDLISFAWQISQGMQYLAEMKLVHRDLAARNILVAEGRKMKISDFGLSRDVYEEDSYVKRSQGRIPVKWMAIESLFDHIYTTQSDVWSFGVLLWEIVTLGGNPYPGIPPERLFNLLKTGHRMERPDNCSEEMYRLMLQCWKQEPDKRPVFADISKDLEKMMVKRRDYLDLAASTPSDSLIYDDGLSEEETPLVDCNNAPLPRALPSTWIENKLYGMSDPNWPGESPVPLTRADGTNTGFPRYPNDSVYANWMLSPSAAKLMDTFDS"}, "source": "patent US20220144847A1", "about": "“HETEROCYCLIC COMPOUND, PHARMACEUTICAL COMPOSITION COMPRISING SAME, PREPARATION METHOD THEREFOR, AND USE THEREOF” (Sichuan Kelun-Biotech Biopharmaceutical Co., Ltd., priority 2019, published 2022)", "key": {"[1]": {"target": "RET-V804M (Homo sapiens, UniProt P07949, V804M)", "assay": "RET inhibition experiment (HTRF KinEASE-TK kit), mutant RET-V804M", "format": "biochemical", "settings": "10 nM (Table 2)", "protocol": "Experimental method: According to the instructions of the HTRF KinEASE-TK kit (Cisbio), the compounds of the present disclosure were tested for their inhibitory effects on the activity of wild-type RET enzyme, mutant RET enzyme (RET-V804M, RET-V804L, and RET-M918T) and fusion-type RET enzyme (RET-CCDCl6). After pre-incubation of different RET enzymes and different concentrations of the test compounds at room temperature for 30 min, a substrate and adenosine triphosphate (ATP) were added to initiate the reaction. After incubation at room temperature for 40 min, TK antibody-cryptate and streptavidin-XL665 were added, and the test was performed after incubation at room temperature for 45 min. With the solvent group (DMSO) as the negative control and the buffer group (without RET enzyme) as the blank control, the relative inhibitory activity percentages (i.e., inhibition rates) of different concentrations of the compounds were computed as per the following formula:\n(§1) Relative inhibitory activity percentage=1−(compound group of different concentrations−blank control)/(negative control−blank control)*100%\nThe relative inhibitory activity percentages of different concentrations of the compounds were plotted with respect to the compound concentrations, and the curve was fitted according to a four-parameter model to compute the IC50 value as per the following formula: […]"}, "[2]": {"target": "VEGFR2 (Homo sapiens, UniProt P35968)", "assay": "VEGFR2 inhibition experiment (HTRF KinEASE-TK kit)", "format": "biochemical", "settings": "100 nM", "protocol": "Experimental method: According to the instructions of the HTRF KinEASE-TK kit (Cisbio), the compounds of the present disclosure were tested for their inhibitory effects on the VEGFR2 enzyme activity. After pre-incubation of the VEGFR2 enzyme and different concentrations of test compounds at room temperature for 30 min, a substrate and adenosine triphosphate (ATP) were added to initiate the reaction. After incubation at room temperature for 40 min, TK antibody-cryptate and streptavidin-XL665 were added, and the test was performed after incubation at room temperature for 45 min. With the solvent group (DMSO) as the negative control and the buffer group (without VEGFR2 enzyme) as the blank control, the relative inhibitory activity percentages (i.e., inhibition rates) of different concentrations of the compounds were computed as per the following formula:\nas §1\nThe relative inhibitory activity percentages of different concentrations of the compounds were plotted with respect to the compound concentrations, and the curve was fitted according to a four-parameter model to compute the IC50 value as per the following formula:\ny=min+(max−min)/(1+(x/IC50)^(−Hillslope)) […]"}}}
{"smiles": "Cc1cc(Nc2cc(C)[nH]n2)nc(-c2ccc(N3CC4CC(C3)N4Cc3ccc(-c4ccccn4)nc3)nc2)n1", "note": "[Compound 130]", "values": [{"measurement": "Inhibition rate on RET-V804M", "setting": "[1]", "result": 44, "unit": "%"}, {"measurement": "Inhibition rate on VEGFR2", "setting": "[2]", "result": 63, "unit": "%"}]}
